In PubChem BioAssay AID602399 (Sanford-Burnham Center for Chemical Genomics, 2012):
Only a part is listed here, and it is no random draw. Some of these compounds have results that are not shown, active ones among them. Active and inactive are the calls of the source. No stated cut-off is given here; in the data, active means inhibition above about 26%; inactive means the rest.

System: Nicotinate-nucleotide adenylyltransferase NadD (Staphylococcus aureus N315)
Test: inhibitors of S. aureus NadD, primary screen, biochemical, colorimetric, uHTS (AID 602399)
Details: purified NadD enzyme, colorimetric absorbance read-out; at 20 µM; hits give high values

Row | SMILES | inhibition
1 | CN(C)C1(CNC(=O)c2ccc(Br)cc2)CCCCC1 | inactive: -4.64%
2 | COc1cc(C(=O)NCC2(N(C)C)CCCCC2)c([N+](=O)[O-])cc1OC | inactive: -3.75%
3 | COc1cccc(C(=O)NCC2(N3CCCCC3)CCCCC2)c1 | inactive: -9.01%
4 | COc1ccc(Cl)cc1C(=O)NCC1(N(C)C)CCCCC1 | inactive: -6.47%
5 | O=C(NCC1(N2CCCCC2)CCCCC1)c1cccc(Cl)c1 | inactive: -1.38%
6 | O=C(OC1CN2CCC1CC2)C(CO)(c1ccccc1)c1ccccc1 (stereo unspecified) | inactive: -4.67%
7 | COc1ccc(Br)c(C(=O)NCC2(N3CCCCC3)CCCCC2)c1 | inactive: 1.3%
8 | C=C(C)C#CC(O)(C(=O)OC1CCN(C)CC1)c1ccccc1 (stereo unspecified) | inactive: 0.31%
9 | CN(C)c1cccc(C(=O)NCC2(N(C)C)CCCCC2)c1 | inactive: -6.69%
10 | CC(C)Oc1ccc(C(=O)NCC2(N(C)C)CCCCC2)cc1 | inactive: -10.1%
11 | O=C(OCCN1CCCC1)C(O)(c1ccccc1)c1ccccc1 | inactive: 0.468%
12 | O=C(NCC1(N2CCCCC2)CCCCC1)c1cc([N+](=O)[O-])ccc1Cl | inactive: 2.04%
13 | CN1[C@@H]2CC[C@H]1CC(OC(=O)C(O)(c1ccccc1)c1ccccc1)C2 (stereo partly specified) | inactive: -9.03%
14 | CC(C)N1C(=O)CC2(CCN(CCOC(=O)C(O)(c3ccccc3)c3ccccc3)CC2)C1=O | inactive: -1.69%
15 | CCN(CC)CC(C)C(C)OC(=O)C(O)(c1ccccc1)c1ccccc1 (stereo unspecified) | inactive: 1.83%
16 | COc1cc(SC)ccc1C(=O)NCC1(N(C)C)CCCCC1 | inactive: -10%
17 | Cc1ccc(C(=O)NCC2(N3CCCCC3)CCCCC2)cc1 | inactive: -2.76%
18 | Cc1ccccc1C(=O)NCC1(N2CCCCC2)CCCCC1 | inactive: -5.01%
19 | CN(C)C1CCCC1OC(=O)C(O)(c1ccccc1)c1ccccc1 (stereo unspecified) | inactive: 2.08%
20 | CN(C)c1ccc(C(=O)NCC2(N(C)C)CCCCC2)cc1 | inactive: -8.11%
21 | C=CCN1CCN(CCOC(=O)C(O)(c2ccccc2)c2ccccc2)CC1 | inactive: -3.29%
22 | O=C(NCC1(N2CCCCC2)CCCCC1)c1cc(F)c(F)cc1Cl | inactive: -9.67%
23 | Cc1cc(C(=O)NCC2(N3CCCCC3)CCCCC2)ccc1[N+](=O)[O-] | inactive: -7.77%
24 | CCN1CCCC(OC(=O)C2(O)c3ccccc3C=Cc3ccccc32)C1 (stereo unspecified) | inactive: -6.61%
25 | O=C(NCC1(N2CCCCC2)CCCCC1)c1cccc(Br)c1 | inactive: -3.43%
26 | COc1ccc(C(=O)NCC2(N(C)C)CCCCC2)cc1 | inactive: -0.924%
